# Reference: PubChem BioAssay AID1053188 (Broad Institute, 2014)
# The list shows a part of the results, in another mix than the full data. Some results for these compounds are left out of this collection, so the calls shown say nothing about other tests. The source made the active and inactive calls.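 The calls were made as follows: active = mean inhibition of at least 50% with a set share of replicates also reaching that level; inconclusive = no clear call, values can overlap the other calls; inactive = the rest.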
# Assay: CD40 pathway blockade in BL2 B cells – cell-based, luciferase reporter, single point, primary screen (AID 1053188);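 also: 0% = neutral control wells and 100% = IKK inhibitor VII at 50 µM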
# Settings: BL2 NF-kB luciferase reporter, CD40L-induced, 4 h; at 10 µM; active compounds read high
row,SMILES,inhibition
1,C=CCN1CCN(CCOC(=O)C(O)(c2ccccc2)c2ccccc2)CC1,inactive: 4.03%
2,CN(C)C1CCCC1OC(=O)C(O)(c1ccccc1)c1ccccc1 (centres undefined),inactive: 11%
3,CN1[C@@H]2CC[C@H]1CC(OC(=O)C(O)(c1ccccc1)c1ccccc1)C2 (some centres undefined),inactive: 2.91%
4,C=C(C)C#CC(O)(C(=O)OC1CCN(C)CC1)c1ccccc1 (centres undefined),active: 81.7%
